The values that follow are results of earlier work, collected in patent US6585957B1, “Medicinal aerosol formulation” (Aeropharm Technology Incorporated, priority 2000, dated 2003).

Like-named read-outs stand apart in the source and are kept apart here.

The conditions of data set [1]: aerosolized insulin delivered into the lung; multiple studies, results quite variable.

insulin: the bioavailability result was “over 50.7%” (aerosolized insulin given peripherally into the lung of rabbits) and 5.6% (liquid insulin dripped into the central airways). The half-life in data set [1] is 15 to 25 min.

One may read the half-life as how long it takes for the measured level to halve.
